In PubChem BioAssay AID901 (National Center for Advancing Translational Sciences (NCATS), 2007):
The list shows a part of the results, in another mix than the full data. Inconclusive results are not listed. The source made the active and inactive calls. The call rests on the fitted dose curve; in most records, active means well fitted curve in the direction sought with a large enough effect in the signal ratio (not every such curve was filed as active); inconclusive means small, poorly fitted or top-dose-only effect, or a change in a side signal; inactive means no such curve, though single readings can be large or run the other way; the % refers to the signal ratio.

The chains behind the UniProt entries cited, without tags or fusion partners.
UniProt P97697, whole entry: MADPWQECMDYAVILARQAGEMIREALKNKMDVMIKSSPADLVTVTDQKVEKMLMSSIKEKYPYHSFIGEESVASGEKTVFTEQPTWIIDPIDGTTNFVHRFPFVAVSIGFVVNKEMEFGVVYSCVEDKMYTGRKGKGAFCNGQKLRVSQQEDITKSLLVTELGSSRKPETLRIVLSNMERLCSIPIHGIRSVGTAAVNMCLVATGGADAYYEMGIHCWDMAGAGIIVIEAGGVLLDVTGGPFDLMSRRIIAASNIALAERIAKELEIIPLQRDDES

biological target: Inositol monophosphatase 1 (Rattus norvegicus) (UniProt P97697); test: qHTS Assay for Identifying the Cell-Membrane Permeable IMPase Inhibitors; conditions: CHO-M1 cells, HTRF TR-FRET ratio; at 46.1 µM (top of the series);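 further: higher means more IMPase inhibition seen as more IP1 and lower FRET ratio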
From the text: NCGC IMPase Assay Overview
Lithium has been widely used for the treatment of bipolar disorder. But lithium has a narrow therapeutic index and it can cause side effects such as thirst, weight gain, tremor, polyuria and memory problems. Although the mechanism for lithium action in treatment of bipolar disorder is still not fully understood, inhibition of inositol monophosphatase (IMPase) and the subsequent depletion of the inositol pool in living cells have been implicated as the primary therapeutic benefit of lithium therapy. Therefore, a selective IMPase inhibitor with reduced side effects might be a good drug candidate to replace lithium for the treatment of bipolar disorder. Several IMPase inhibitors have been discovered previously. However, they are not suitable for therapeutic use because of their poor cell membrane penetrability or oral bioavailability; the development of new cell-permeable IMPase inhibitors is needed.
IMPase catalyzes the hydrolysis of inositol-1-phosphate (IP1) to release free inositol. Binding of an agonist to a Gq coupled GPCR results in the activation of PLC, which hydrolyzes the PIP2 to form inositol-1,4,5-trisphosphate (IP3) and diacyl glycerol (DAG). While DAG activates protein kinase C (PKC), IP3 triggers the elevation of intracellular free Ca2+. The IP3 is very rapidly inactivated by hydrolysis to IP2, IP1 and then inositol by a series of enzymes including IMPase. Free inositols are used for synthesis of PI and thus start another inositol cycle.
To identify new cell-permeable IMPase inhibitors, we developed a cell-based IMPase assay in which the cytosolic IP1 is measured by a time-resolved fluorescence resonance energy transfer (TR-FRET) assay. In this assay, an IP1 specific antibody is used to detect the labeled IP1 tracer. When the cell lysate contains the elevated IP1 due to the inhibition of IMPase, the TR-FRET between the labeled antibody and IP1 tracer is disrupted resulting in a reduction in the total signal. Since the TR-FRET is used, this cell-based assay is a homogenous assay without cell wash and medium change that is suitable for assay miniaturization and HTS.
NCGC IMPase Assay Protocol Summary
A Chinese hamster ovary (CHO) cell line stably expressing the M1 receptor (CHO-M1) was obtained from ATCC and maintained in F-12 Kaighn's media (Invitrogen, Carlsbad, CA, 21127) supplemented with 10 % FBS, 100 units/ml penicillin, 100 ug/ml streptomycin and 250 ug/ml geneticin at 37C, 5% CO2 in a humidified atmosphere. Before the assay, aliquots of cells were frozen and stored at -135C. The assay was performed in 1536-well format. Data are reported for both the ratio of the two emission wavelengths, and also for the component 'donor' channel, Em2=620. […] AC50 values were determined from concentration-response data modeled with the standard Hill equation.
IMPase 1536-well assay protocol:
(1) Plate 4 ul/well (2000 cells) of cell suspension from frozen CHO-M1 Cells in white, tissue culture treated 1536-well plates that are cultured at 37C, 5 % CO2 for 16 to 30 hours.
(2) Add 23 nl/well of compound in DMSO solution. The final titration for each compound was between 0.6 nM and 46 uM.
(3) Add 1 ul of carbachol (50 uM in stimulation buffer containing10mM HEPES, 1mM CaCl2, 0.5 mM MgCl2, 4.2 mM KCl, 146 mM NaCl, 5.5 mM glucose, 50mM LiCl, pH 7.4.
(4) Incubation at 37C, 5 % CO2 for 30 min.
(5) Add 1 ul/well of d2-conjugated IP1 (d2-IP1) and 1 ul/well of Eu+ cryptate conjugated anti-IP1 antibody (Eu+-Ab) prepared in the cell lysis buffer, both from the IP-One kit (Cisbio, MA).
(6) Incubate at room temperature for 10 minutes.
(7) Detect the assay plate (Ex = 320, Em1 =665 and Em2 620) in a ViewLux plate reader.
inositol monophosphatase, IMPase, IMPase inhibitor, lithium, bipolar disorder, IP-One, HTRF, qHTS, NIH roadmap, NCGC
Note: In the gene ID and protein GI references for this assay, rat IMPase is referenced instead of hampster as hamster accession numbers were not available.

Row | SMILES | inhibition (IP1 accumulation)
1 | O=C(NCC1(N2CCOCC2)CCCCC1)c1cc2ccccc2o1 | inactive: 0.1%
2 | O=C(OC1CN2CCC1CC2)C1c2ccccc2Oc2ccccc21 (centres undefined) | inactive: 6.26%
3 | COc1ccc(NC2CCN(CCc3ccccc3)CC2)c(OC)c1 | inactive: 11.9%
4 | N#CC1(Nc2ccccc2)CCN(CCc2ccccc2)CC1 | inactive: 4.09%
5 | O=C(NCC1(N2CCOCC2)CCCCC1)c1cc(=O)[nH]c2ccccc12 | inactive: 5.59%
6 | N/C(=N\O)c1c(N)no[n+]1[O-] | inactive: -11%
7 | c1ccc(CN2CCC(Nc3ccccc3)CC2)cc1 | inactive: 0.974%
8 | Fc1ccccc1NC1CCN(Cc2ccccc2)CC1 | inactive: 6.65%
9 | CCC(CO)(C(=O)OC1CN2CCC1CC2)c1ccccc1 (centres undefined) | inactive: 17.3%
